From US20060189679A1, “C10 cyclopropyl ester substituted taxane compositions” (priority 2005, published 2006)

Assays:
[1] = tested on: 786-0 human renal carcinoma xenografts; assay: 786-0 human tumor xenograft study (e89) in nude mice; conditions: for # Death NTR (Non-Treatment Related) / # Death TR (Treatment Related) / Day of Max. % BW Loss / MDS to 2.0 g ± SEM(n) / Max. % BW Loss: 786-0-e09 study; for Median survival Ratio: Column A (5% EC in Saline) / Column B
[2] = tested on: Panc-1 human pancreatic tumor xenografts; assay: Panc-1 human tumor xenograft studies in nude mice
[3] = tested on: SW480 human colon carcinoma xenografts; assay: SW480 human tumor xenograft study (e11) in nude mice
[4] = tested on: DLD-1 multi-drug resistant human colon carcinoma xenografts; assay: DLD-1 human tumor xenograft study (DLD e07) in nude mice; conditions: DLD1-e07 study
[5] = tested on: DLD-1 resistant colon carcinoma cells (overexpresses p-glycoprotein); assay: In vitro cytotoxic activity (MTT, 72 hr); type: cell-based, human; conditions: DLD-1 in vitro

## CC(=O)O[C@@]12CO[C@@H]1C[C@H](O)[C@@]1(C)C(=O)[C@H](OC(=O)C3CC3)C3=C(C)[C@@H](OC(=O)[C@H](O)[C@@H](NC(=O)OCC(C)C)c4ccco4)C[C@@](O)([C@@H](OC(=O)c4ccccc4)C12)C3(C)C (stereo partly drawn) [Compound 3102]
[1]; 30 mg/kg IV Q4D × 4
  # Death NTR (Non-Treatment Related): 0
  # Death TR (Treatment Related): 0
  Day of Max. % BW Loss: Day 17
  MDS to 2.0 g ± SEM(n): 50.8 ± 3.8
  Max. % BW Loss: −12.4%;
[1]; 50 mg/kg PO Q4D × 4
  # Death NTR (Non-Treatment Related): 0
  # Death TR (Treatment Related): 0
  MDS to 2.0 g ± SEM(n): 42.8 ± 2.2
[1]; 70 mg/kg PO Q4D × 4
  # Death NTR (Non-Treatment Related): 0
  # Death TR (Treatment Related): 0
  Day of Max. % BW Loss: Day 10
  MDS to 2.0 g ± SEM(n): 40.5 ± 2.0
  Max. % BW Loss: −5.3%;
[1]; 80 mg/kg PO Q4D × 4
  # Death NTR (Non-Treatment Related): 0
  # Death TR (Treatment Related): 0
  Day of Max. % BW Loss: Day 17
  MDS to 2.0 g ± SEM(n): 47.7 ± 2.1
  Max. % BW Loss: −7.6%;
[1]; IV Q4D × 4 30 mg/kg
  Median survival Ratio: 0.6789
  Median survival: 54.65
[1]; PO Q4D × 4 50 mg/kg
  Median survival Ratio: 0.8235
  Median survival: 45.05
[1]; PO Q4D × 4 70 mg/kg
  Median survival Ratio: 0.9562
  Median survival: 38.8
[1]; PO Q4D × 4 80 mg/kg
  Median survival Ratio: 0.7729
  Median survival: 48
[1]; IV Q4D × 4 30 mg/kg vs 5% EC in Saline PO Q4D × 4
  Hazard Ratio: 3.164
[1]; PO Q4D × 4 50 mg/kg vs 5% EC in Saline PO Q4D × 4
  Hazard Ratio: 2.176
[1]; PO Q4D × 4 70 mg/kg vs 5% EC in Saline PO Q4D × 4
  Hazard Ratio: 1.297
[1]; PO Q4D × 4 80 mg/kg vs 5% EC in Saline PO Q4D × 4
  Hazard Ratio: 3.013
[2]; Panc-e79, 30 mg/kg PO Q4D × 4
  # Death NTR: 0
  # Death TR: 0
  #CR: 0
  #PR: 1
  #SD/PD: 3
  MDS to 1.2 g ± SEM (n): 32.0 ± 2.7 (2) days
[2]; Panc-e79, 30 mg/kg PO Q4D × 4, Day 15
  Max. % BW Loss; Day: −0.4%;
[2]; Panc-e79, 45 mg/kg PO Q4D × 4
  # Death NTR: 0
  # Death TR: 0
  #CR: 0
  #PR: 6
  #SD/PD: 0
[2]; Panc-e79, 45 mg/kg PO Q4D × 4, Day 15
  Max. % BW Loss; Day: −6.7%;
[2]; Panc-e79, 45 mg/kg PO Q4D × 4, listed as compound 3102
  #PR: 6/6
[2]; Panc-e79, 60 mg/kg PO Q4D × 4
  # Death NTR: 0
  # Death TR: 0
  #CR: 0
  #PR: 6
  #SD/PD: 0
[2]; Panc-e79, 60 mg/kg PO Q4D × 4, Day 15
  Max. % BW Loss; Day: −11.1%;
[2]; Panc-e79, 60 mg/kg PO Q4D × 4, Day 15, listed as compound 3102
  Max. % BW Loss; Day: −11.1%
[2]; Panc-e79, 60 mg/kg PO Q4D × 4, listed as compound 3102
  #PR: 6/6
[2]; Panc-e87, 50 mg/kg PO Q4D × 4
  # Death NTR: 0
  # Death TR: 0
  #CR: 0
  #PR: 6
  #SD/PD: 0
[2]; Panc-e87, 50 mg/kg PO Q4D × 4, Day 12
  Max. % BW Loss; Day: −1.4%;
[2]; Panc-e87, 50 mg/kg PO Q4D × 4, listed as compound 3102
  #PR: 6/6
[2]; Panc-e87, 60 mg/kg PO Q4D × 4
  # Death NTR: 0
  # Death TR: 0
  #CR: 0
  #PR: 6
  #SD/PD: 0
[2]; Panc-e87, 60 mg/kg PO Q4D × 4, Day 12
  Max. % BW Loss; Day: −2.7%;
[2]; Panc-e87, 60 mg/kg PO Q4D × 4, listed as compound 3102
  #PR: 6/6
[2]; Panc-e87, 70 mg/kg PO Q4D × 4
  # Death NTR: 0
  # Death TR: 0
  #CR: 1
  #PR: 5
  #SD/PD: 0
[2]; Panc-e87, 70 mg/kg PO Q4D × 4, Day 12
  Max. % BW Loss; Day: −9.9%;
[2]; Panc-e87, 70 mg/kg PO Q4D × 4, Day 12, listed as compound 3102
  Max. % BW Loss; Day: −9.9%
[2]; Panc-e92, 25 mg/kg IV Q4D × 4
  # Death NTR: 0
  # Death TR: 0
  #CR: 1
  #PR: 5
  #SD/PD: 0
[2]; Panc-e92, 25 mg/kg IV Q4D × 4, Day 18
  Max. % BW Loss; Day: −6.1%;
[2]; Panc-e92, 30 mg/kg IV Q4D × 4
  # Death NTR: 0
  # Death TR: 0
  #CR: 1
  #PR: 5
  #SD/PD: 0
[2]; Panc-e92, 30 mg/kg IV Q4D × 4, Day 18
  Max. % BW Loss; Day: −6.0%;
[2]; Panc-e95, 15 mg/kg PO Q7D × 3
  # Death NTR: 0
  # Death TR: 0
  MDS to 1.2 g ± SEM (n): 29.0 ± 2.2 days
[2]; Panc-e95, 15 mg/kg PO Q7D × 3, Day 13
  Max. % BW Loss; Day: −1.3%;
[2]; Panc-e95, 30 mg/kg PO Q4D × 4
  # Death NTR: 0
  # Death TR: 0
  MDS to 1.2 g ± SEM (n): 49.8 days
[2]; Panc-e95, 30 mg/kg PO Q7D × 3
  # Death NTR: 0
  # Death TR: 0
  MDS to 1.2 g ± SEM (n): 46.8 ± 3.6 days
[2]; Panc-e95, 40 mg/kg PO Q4D × 4
  # Death NTR: 0
  # Death TR: 0
  MDS to 1.2 g ± SEM (n): 59.5 days
[2]; Panc-e95, 40 mg/kg PO Q4D × 4, Day 16
  Max. % BW Loss; Day: −6.3%;
[2]; Panc-e95, 50 mg/kg PO Q4D × 4
  # Death NTR: 0
  # Death TR: 0
[2]; Panc-e95, 50 mg/kg PO Q4D × 4, Day 16
  Max. % BW Loss; Day: −2.5%;
[2]; Panc-e95, 60 mg/kg PO Q4D × 4
  # Death NTR: 0
  # Death TR: 0
[2]; Panc-e95, 60 mg/kg PO Q4D × 4, Day 13
  Max. % BW Loss; Day: −8.2%;
[2]; Panc-e95, 60 mg/kg PO Q7D × 3
  # Death NTR: 0
  # Death TR: 0
[2]; Panc-e95, 60 mg/kg PO Q7D × 3, Day 13
  Max. % BW Loss; Day: −4.5%;
[2]; Panc-e95, 70 mg/kg PO Q4D × 4
  # Death NTR: 0
  # Death TR: 0
[2]; Panc-e95, 70 mg/kg PO Q4D × 4, Day 16
  Max. % BW Loss; Day: −11.7%;
[2]; Panc-e95, 80 mg/kg PO Q4D × 4
  # Death NTR: 0
  # Death TR: 0
[2]; Panc-e95, 80 mg/kg PO Q4D × 4, Day 13
  Max. % BW Loss; Day: −9.7%;
[2]; Panc-e95, 90 mg/kg PO Q7D × 3
  # Death NTR: 0
  # Death TR: 0
[2]; Panc-e95, 90 mg/kg PO Q7D × 3, Day 20
  Max. % BW Loss; Day: −14.8%;
[2]; Panc-e95, 120 mg/kg PO Q7D × 3
  # Death NTR: 0
  # Death TR: 0
[2]; Panc-e95, 120 mg/kg PO Q7D × 3, Day 23
  Max. % BW Loss; Day: −12.0%;
[2]; Panc-e95, 150 mg/kg PO Q7D × 3
  # Death NTR: 0
  # Death TR: 2
[2]; Panc-e95, 150 mg/kg PO Q7D × 3, Day 27
  Max. % BW Loss; Day: −25.8%;
[2]; Panc-e95, 180 mg/kg PO Q7D × 3
  # Death NTR: 0
  # Death TR: 0
[2]; Panc-e95, 180 mg/kg PO Q7D × 3, Day 27
  Max. % BW Loss; Day: −26.9%;
[3]; 30 mg/kg IV Q4D × 4
  # Death NTR (Non-Treatment Related): 0
  # Death TR (Treatment Related): 0
  Day of Max. % BW Loss: Day 22
  MDS to 2.0 g ± SEM(n): 32.6 ± 4.3
  Max. % BW Loss: −20.1%;
[3]; 50 mg/kg PO Q4D × 4
  # Death NTR (Non-Treatment Related): 0
  # Death TR (Treatment Related): 0
  Day of Max. % BW Loss: Day 15
  MDS to 2.0 g ± SEM(n): 32.3 ± 3.1
  Max. % BW Loss: −19.3%;
[3]; 70 mg/kg PO Q4D × 4
  # Death NTR (Non-Treatment Related): 1
  # Death TR (Treatment Related): 0
  Day of Max. % BW Loss: Day 19
  MDS to 2.0 g ± SEM(n): 29.0 ± 3.8
  Max. % BW Loss: −18.1%;
[3]; 90 mg/kg PO Q4D × 4
  # Death NTR (Non-Treatment Related): 0
  # Death TR (Treatment Related): 0
  Day of Max. % BW Loss: Day 15
  MDS to 2.0 g ± SEM(n): 40.7 ± 1.3
  Max. % BW Loss: −23.6%;
[4]; 30 mg/kg IV Q4D × 4
  # Death NTR (Non-Treatment Related): 0
  # Death TR (Treatment Related): 0
[4]; 50 mg/kg PO Q4D × 4
  # Death NTR (Non-Treatment Related): 0
  # Death TR (Treatment Related): 0
[4]; 70 mg/kg PO Q4D × 4
  # Death NTR (Non-Treatment Related): 0
  # Death TR (Treatment Related): 0
  Max. % BW Loss: −13.5%;
[4]; 80 mg/kg PO Q4D × 4
  # Death NTR (Non-Treatment Related): 0
  # Death TR (Treatment Related): 0
[5]
  potency compared to both paclitaxel and docetaxel in killing DLD-1 tumor cells: at least 5 fold
